Measured values: paper PMC2229169 (The Journal of General Physiology, 1993)

By UniProt entry, the sequences of proteins in these tests, tags left out. Where a name states a change or a piece, a line headed by the entry shows the natural chain unless it says otherwise.
UniProt Q03719: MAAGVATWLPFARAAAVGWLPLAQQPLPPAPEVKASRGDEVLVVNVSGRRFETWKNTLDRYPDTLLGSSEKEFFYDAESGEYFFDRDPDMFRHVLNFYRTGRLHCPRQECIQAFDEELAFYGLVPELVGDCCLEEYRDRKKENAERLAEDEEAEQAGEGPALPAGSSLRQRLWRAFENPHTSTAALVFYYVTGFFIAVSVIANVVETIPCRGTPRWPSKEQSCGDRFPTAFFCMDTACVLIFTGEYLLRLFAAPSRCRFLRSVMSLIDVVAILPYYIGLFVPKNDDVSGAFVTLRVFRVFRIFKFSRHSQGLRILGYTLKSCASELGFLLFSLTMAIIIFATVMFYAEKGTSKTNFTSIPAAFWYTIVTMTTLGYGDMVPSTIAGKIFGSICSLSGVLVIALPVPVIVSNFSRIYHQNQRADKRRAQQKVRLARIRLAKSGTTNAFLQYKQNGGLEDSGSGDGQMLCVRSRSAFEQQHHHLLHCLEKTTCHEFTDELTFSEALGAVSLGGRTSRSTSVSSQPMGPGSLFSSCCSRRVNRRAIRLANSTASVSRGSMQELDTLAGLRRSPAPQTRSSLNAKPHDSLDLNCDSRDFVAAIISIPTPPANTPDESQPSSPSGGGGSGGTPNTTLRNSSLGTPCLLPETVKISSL

Biological target: mShal1 (mKv4.1) (Mus musculus, UniProt Q03719)
Assay: cell-based

Nc1ccncc1 [4-AP, 4-aminopyridine]
IC50: 28.4 ± 1.6 mM
